# ChEMBL document CHEMBL2331535, “Discovery and Biological Profiling of Potent and Selective mTOR Inhibitor GDC-0349” (ACS Med Chem Lett, 2013)
# Organism: Homo sapiens
# Assay: Selectivity ratio of Ki for PI3K-alpha (unknown origin) to Ki for mTOR (unknown origin)
smiles,measurement,value
CCNC(=O)Nc1ccc(-c2nc3c(c(N4CCOCC4)n2)CCN(c2ncccn2)C3)cc1,Ratio Ki,60
